In PubChem BioAssay AID680 (PCMD, 2007):
Only a part is listed here, and it is no random draw. Some of these compounds have results that are not shown, active ones among them. Activity calls are given as the source filed them. Rule as the data show it: active = inhibition above about 20% (passing the limit was not always enough); inactive = the rest.

By UniProt entry, the sequences of proteins in these tests, tags left out. Residues count along the entry.
UniProt P03951, 19-387 limits assumed: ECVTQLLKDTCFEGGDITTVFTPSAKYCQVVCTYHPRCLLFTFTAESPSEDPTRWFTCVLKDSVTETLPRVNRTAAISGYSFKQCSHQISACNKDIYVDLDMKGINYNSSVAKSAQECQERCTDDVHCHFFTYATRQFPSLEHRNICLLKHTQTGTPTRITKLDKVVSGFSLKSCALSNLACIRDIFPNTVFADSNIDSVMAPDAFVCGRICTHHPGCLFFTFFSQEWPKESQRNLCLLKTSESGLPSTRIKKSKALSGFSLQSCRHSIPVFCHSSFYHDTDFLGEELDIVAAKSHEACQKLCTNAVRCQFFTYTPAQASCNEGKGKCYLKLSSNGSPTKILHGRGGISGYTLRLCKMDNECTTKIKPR
UniProt P03951, 388-625 limits assumed: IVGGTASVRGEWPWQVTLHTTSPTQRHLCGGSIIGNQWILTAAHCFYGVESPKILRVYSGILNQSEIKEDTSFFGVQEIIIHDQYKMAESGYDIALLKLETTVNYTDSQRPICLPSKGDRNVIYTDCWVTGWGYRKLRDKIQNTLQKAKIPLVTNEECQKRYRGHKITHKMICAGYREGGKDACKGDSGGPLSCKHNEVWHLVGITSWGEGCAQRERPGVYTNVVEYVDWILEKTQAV

Each compound was assayed against Coagulation factor XI (Homo sapiens) (UniProt P03951) (assay: human factor XIa inhibition by mixtures – biochemical, 10-compound mixtures, primary screen (AID 680;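 also: each value is inhibition by a whole ten-compound pool holding the compound; 0% = enzyme with no mixture and 100% = wells lacking enzyme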)). Conditions: purified FXIa, fluorogenic substrate, pooled mixtures; at 5 µM; hits give high values.

Structure (SMILES) | inhibition
O=C(OC1CN2CCC1CC2)C(CO)(c1ccccc1)c1ccccc1 (configuration not stated) | inactive: 6.48%
CN(C)c1cccc(C(=O)NCC2(N(C)C)CCCCC2)c1 | inactive: 11.2%
